System: NIH-3T3 viability, ATP luminescence
Test: murine fibroblast viability via ATP level – cell-based, murine fibroblasts, cytotoxicity control for Trypanosoma cruzi inhibitor project (AID 1159561)
Conditions: 4 days

Q: With `CC(C)(C)c1ccc(NC2(C(N)=O)CCN(Cc3ccccc3)CC2)cc1` as the compound, how does the IC50 read?
A: 10 µM

From PubChem BioAssay AID1159561 (GlaxoSmithKline (GSK), 2015)
